Test results reported in ChEMBL document CHEMBL2331117 (J Med Chem, 2013).

The chains behind the UniProt entries cited, without tags or fusion partners. Where a name states a change or a piece, a line headed by the entry shows the natural chain unless it says otherwise.
UniProt Q14012: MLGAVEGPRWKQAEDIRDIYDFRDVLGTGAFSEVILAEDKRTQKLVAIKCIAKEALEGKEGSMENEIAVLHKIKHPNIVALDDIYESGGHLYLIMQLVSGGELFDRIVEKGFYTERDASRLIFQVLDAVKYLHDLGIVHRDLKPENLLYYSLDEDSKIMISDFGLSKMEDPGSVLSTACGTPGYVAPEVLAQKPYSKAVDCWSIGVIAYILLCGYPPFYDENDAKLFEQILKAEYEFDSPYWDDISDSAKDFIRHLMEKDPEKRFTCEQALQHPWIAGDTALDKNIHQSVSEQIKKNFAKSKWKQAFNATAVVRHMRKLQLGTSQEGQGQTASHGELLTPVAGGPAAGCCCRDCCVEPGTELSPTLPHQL
UniProt P22455, whole entry: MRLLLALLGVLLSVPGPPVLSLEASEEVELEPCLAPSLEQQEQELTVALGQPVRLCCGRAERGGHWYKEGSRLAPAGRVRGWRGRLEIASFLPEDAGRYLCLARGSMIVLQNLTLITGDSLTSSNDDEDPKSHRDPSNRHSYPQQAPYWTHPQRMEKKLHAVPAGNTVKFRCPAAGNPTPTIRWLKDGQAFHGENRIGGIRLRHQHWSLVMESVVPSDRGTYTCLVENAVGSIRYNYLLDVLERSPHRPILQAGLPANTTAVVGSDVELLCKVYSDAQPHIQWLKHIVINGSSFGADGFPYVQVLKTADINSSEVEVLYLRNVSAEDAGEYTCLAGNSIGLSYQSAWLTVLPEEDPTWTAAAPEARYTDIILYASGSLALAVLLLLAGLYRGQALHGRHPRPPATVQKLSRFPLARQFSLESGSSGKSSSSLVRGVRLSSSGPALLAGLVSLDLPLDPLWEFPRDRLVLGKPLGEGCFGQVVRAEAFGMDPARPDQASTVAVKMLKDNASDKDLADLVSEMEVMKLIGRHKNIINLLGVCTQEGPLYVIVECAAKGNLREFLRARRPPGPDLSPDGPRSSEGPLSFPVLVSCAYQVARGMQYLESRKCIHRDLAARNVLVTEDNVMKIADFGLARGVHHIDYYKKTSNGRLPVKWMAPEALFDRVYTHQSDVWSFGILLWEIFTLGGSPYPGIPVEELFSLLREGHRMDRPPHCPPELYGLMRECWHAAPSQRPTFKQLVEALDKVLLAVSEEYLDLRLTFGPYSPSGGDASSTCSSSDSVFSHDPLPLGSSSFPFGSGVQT
UniProt P05771, whole entry: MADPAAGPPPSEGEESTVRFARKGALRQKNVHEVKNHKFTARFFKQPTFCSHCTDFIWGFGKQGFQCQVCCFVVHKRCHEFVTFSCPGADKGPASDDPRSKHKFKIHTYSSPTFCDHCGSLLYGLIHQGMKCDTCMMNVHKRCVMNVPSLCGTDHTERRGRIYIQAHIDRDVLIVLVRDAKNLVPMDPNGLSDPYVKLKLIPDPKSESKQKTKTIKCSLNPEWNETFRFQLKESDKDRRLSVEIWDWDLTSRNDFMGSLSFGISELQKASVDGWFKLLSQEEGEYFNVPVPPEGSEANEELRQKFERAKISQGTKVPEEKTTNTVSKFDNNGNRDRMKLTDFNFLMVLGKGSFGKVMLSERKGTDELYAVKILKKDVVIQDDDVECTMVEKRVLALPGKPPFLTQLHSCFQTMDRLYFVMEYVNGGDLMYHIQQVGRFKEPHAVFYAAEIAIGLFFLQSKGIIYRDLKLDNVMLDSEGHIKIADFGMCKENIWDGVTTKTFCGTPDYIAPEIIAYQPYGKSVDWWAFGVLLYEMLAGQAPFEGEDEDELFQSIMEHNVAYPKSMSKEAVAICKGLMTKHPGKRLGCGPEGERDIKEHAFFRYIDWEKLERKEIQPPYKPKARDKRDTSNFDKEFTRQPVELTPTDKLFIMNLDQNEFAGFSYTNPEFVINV

Columns and labels:
[1] = target: T1, Serine/threonine-protein kinase STK11 (Homo sapiens, UniProt Q15831); experiment: Inhibition of LKB1 (unknown origin)
T1 sequence (Q15831 whole entry): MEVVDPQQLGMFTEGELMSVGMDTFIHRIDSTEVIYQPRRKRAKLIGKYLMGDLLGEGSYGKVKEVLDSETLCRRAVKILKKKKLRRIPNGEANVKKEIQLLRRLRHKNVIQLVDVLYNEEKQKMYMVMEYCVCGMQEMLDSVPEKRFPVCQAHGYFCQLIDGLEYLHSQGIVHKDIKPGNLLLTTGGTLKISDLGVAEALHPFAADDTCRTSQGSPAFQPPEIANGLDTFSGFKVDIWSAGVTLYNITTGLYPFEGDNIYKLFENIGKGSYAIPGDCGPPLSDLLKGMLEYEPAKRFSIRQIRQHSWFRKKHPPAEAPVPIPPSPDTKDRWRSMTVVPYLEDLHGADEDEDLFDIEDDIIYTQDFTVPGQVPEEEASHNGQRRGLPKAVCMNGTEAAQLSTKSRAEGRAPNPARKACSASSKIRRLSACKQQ

[2] = target: Calcium/calmodulin-dependent protein kinase type 1 (Homo sapiens, UniProt Q14012); experiment: Inhibition of CAMK1 (unknown origin)
[3] = target: Fibroblast growth factor receptor 4 (Homo sapiens, UniProt P22455); experiment: Inhibition of FGFR4 (unknown origin)
Ephrin type-B receptor 1 = target: T2, Ephrin type-B receptor 1 (Homo sapiens, UniProt P54762); experiment: Inhibition of EPHB1 (unknown origin)
T2 sequence (P54762 whole entry): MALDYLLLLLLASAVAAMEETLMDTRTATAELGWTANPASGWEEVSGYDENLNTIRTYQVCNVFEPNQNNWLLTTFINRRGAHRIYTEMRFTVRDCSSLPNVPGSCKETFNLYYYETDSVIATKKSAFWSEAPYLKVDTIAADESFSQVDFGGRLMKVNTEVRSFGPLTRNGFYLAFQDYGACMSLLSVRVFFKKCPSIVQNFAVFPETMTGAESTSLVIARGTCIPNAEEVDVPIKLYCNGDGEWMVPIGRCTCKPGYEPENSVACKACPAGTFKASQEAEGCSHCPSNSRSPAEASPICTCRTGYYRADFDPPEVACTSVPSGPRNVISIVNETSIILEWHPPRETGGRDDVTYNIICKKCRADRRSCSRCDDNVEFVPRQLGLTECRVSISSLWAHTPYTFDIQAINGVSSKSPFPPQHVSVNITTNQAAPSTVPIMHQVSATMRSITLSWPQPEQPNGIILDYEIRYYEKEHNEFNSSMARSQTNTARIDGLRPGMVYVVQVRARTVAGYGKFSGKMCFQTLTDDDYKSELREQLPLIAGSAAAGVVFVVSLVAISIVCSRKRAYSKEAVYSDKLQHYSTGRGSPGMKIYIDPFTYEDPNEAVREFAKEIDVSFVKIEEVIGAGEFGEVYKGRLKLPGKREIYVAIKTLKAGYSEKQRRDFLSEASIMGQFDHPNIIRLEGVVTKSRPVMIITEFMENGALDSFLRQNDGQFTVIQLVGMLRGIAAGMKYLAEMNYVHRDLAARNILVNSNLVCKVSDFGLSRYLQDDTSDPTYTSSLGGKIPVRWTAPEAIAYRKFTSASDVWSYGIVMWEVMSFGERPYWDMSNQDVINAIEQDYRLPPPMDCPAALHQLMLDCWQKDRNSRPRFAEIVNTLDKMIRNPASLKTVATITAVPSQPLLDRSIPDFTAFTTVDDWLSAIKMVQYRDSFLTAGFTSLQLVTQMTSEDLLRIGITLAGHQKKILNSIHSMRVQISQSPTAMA

[4] = Inhibition of PKA (unknown origin); set-up: species or system Homo sapiens
[5] = target: T3, Serine/threonine-protein kinase D2 (Homo sapiens, UniProt Q9BZL6); experiment: Inhibition of PKD2 (unknown origin)
T3 sequence (Q9BZL6 whole entry): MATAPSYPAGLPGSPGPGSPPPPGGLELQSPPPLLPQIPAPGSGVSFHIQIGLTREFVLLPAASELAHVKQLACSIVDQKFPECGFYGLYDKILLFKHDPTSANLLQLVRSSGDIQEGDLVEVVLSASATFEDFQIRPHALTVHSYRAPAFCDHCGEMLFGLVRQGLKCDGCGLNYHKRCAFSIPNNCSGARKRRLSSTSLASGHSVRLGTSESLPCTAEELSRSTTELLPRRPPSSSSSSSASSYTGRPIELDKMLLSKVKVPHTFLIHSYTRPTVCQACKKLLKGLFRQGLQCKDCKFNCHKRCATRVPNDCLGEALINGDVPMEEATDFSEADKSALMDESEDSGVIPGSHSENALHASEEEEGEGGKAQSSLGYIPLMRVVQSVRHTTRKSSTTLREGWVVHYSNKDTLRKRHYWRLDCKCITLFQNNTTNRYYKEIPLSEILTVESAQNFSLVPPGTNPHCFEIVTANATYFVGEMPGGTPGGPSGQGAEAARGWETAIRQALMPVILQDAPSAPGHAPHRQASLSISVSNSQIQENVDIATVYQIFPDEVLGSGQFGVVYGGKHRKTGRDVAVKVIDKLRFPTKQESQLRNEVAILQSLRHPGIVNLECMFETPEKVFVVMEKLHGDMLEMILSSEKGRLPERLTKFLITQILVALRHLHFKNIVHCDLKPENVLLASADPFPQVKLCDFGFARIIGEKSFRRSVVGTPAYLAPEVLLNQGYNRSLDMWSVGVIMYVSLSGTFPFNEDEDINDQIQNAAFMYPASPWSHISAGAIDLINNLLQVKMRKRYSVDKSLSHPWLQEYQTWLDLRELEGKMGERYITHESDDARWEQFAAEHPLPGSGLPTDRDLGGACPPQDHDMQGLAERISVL

[6] = target: Protein kinase C beta type (Homo sapiens, UniProt P05771); experiment: Inhibition of PKCbeta1 (unknown origin)

Measured: IC50

Cc1c(C(=O)N2CCOc3ccc(-c4ccc(N)nc4)cc3C2)ccc(S(C)(=O)=O)c1F
> 10 µM: [1] | [2] | [3] | Ephrin type-B receptor 1 | [4] | [5] | [6]
